Laboratory results reported in patent publication US20230060715A1, “USE OF FXR AGONISTS FOR TREATING AN INFECTION BY HEPATITIS D VIRUS” (INSERM (INSTITUT NATIONAL DE LA SANTÉ ET DE LA RECHERCHE …, priority 2020, published 2023).

Columns and labels:
[1] = tested on: HDV; conditions: HDV patients, subcutaneous injection, often with a nucleoside analogue; cited from earlier work
[2] = tested on: HDV; experiment: HDV replication in HBV/HDV coinfected dHepaRG cells (intracellular HDV RNA, RT-qPCR); format: cell-based, Hepatitis D virus; conditions: 1000 IU/mL, treated day 3 to 13 post-infection
Source text: FIG. 1. FXRα agonist inhibits HDV replication in HBV-HDV coinfected dHepaRG cells. […] Cells and supernatants were harvested at day 13 for intracellular HBV and HDV RNA and secreted antigens quantification. Results are the mean+/−SD of two experiments performed with three biological replicates.
The inventors first evaluated the impact of FXRα agonists on HDV replication in in vitro coinfected dHepaRG cells. […] . At day 13 post-infection, cells and supernatants were collected. The intracellular amounts of HDV and HBV RNAs were quantified as well as secreted HBe and HBs antigens.
The HepaRG cell line derived from a human cellular hepato carcinoma can differentiate and regain many phenotypic traits of hepatocytes after 4 weeks of culture under defined conditions^1. HepaRG cells were cultured, differentiated, and infected by HBV and HDV as previously described^2,3. Briefly, for differentiation, cells were maintained for 2 weeks in standard medium then for at least 2 weeks in standard medium supplemented with 1.8% DMSO The composition of standard medium was the following: William's E medium supplemented with 10% HyCLone FetalClone II serum (Thermo Fisher Scientific), penicillin/streptomycin, L-glutamine, Insulin-Transferrin-Selenium (Gibco) and 50 μM hydrocortisone hemisuccinate. […]

[3] = tested on: HDV; experiment: HDV replication in HBV-infected PHH super-infected with HDV (intracellular HDV RNA, RT-qPCR); format: cell-based, Hepatitis D virus; conditions: 1000 IU/mL, 7 days treatment, superinfected PHH
[4] = tested on: HDV; experiment: HDV replication in HBV-infected dHepaRG super-infected with HDV (intracellular HDV RNA, RT-qPCR); format: cell-based, Hepatitis D virus; conditions: 1000 IU/mL, 7 days treatment, superinfected dHepaRG
[5] = tested on: HDV; experiment: Secretion of HDV RNA from HBV/HDV coinfected dHepaRG cells (RT-qPCR of concentrated supernatants); conditions: interferon 1000 IU/mL for 10 days
[6] = tested on: HDV particles; experiment: Specific infectivity of secreted HDV particles on naïve Huh7.5-NTCP cells; conditions: 6 days post infection

Substance	response rate on treatment [1]	decrease of total intracellular HDV RNA (compared with GW4064 10 μM) [2]	decrease of total intracellular HDV RNA (compared with GW4064) [3]	decrease of total intracellular HDV RNA (compared with GW4064) [4]	decrease of secreted HDV RNA [5]	intracellular HDV RNA levels with inoculum 100 versus 500 vge/cell ([6]; Huh7.5-NTCP infected with supernatants of treated dHepaRG)	decrease of intracellular HDV RNA in cells infected with supernatants of treated dHepaRG ([6]; producer cells treated with interferon 1000 IU/mL, Huh7.5-NTCP infected with 500 vge/cell)
PEG-IFN-α2a: Pegylated-interferon-alpha-2a, a non-specific immune-stimulator	about 25%						
interferon α-2a: Interferon alpha-2 (ROFERON-A) purchased from Roche		comparable	comparable	comparable	50%	dose dependent increase	70%
